The record followed here is patent publication US11903936B2, “Anti-malarial agents” (THE BOARD OF REGENTS OF THE UNIVERSITY OF TEXAS SYSTEM, priority 2019, dated 2024).

The test relates to parasitized human erythrocytes. The conditions noted are these: mouse, in vivo.

Turning to `Cc1c(C2(c3ccc(C(F)(F)F)c(C#N)c3)CC2)c[nH]c1C(=O)NC(C)c1nc[nH]n1` (single isomer, unassigned) [Compound 26, 4-{1-[3-cyano-4-(trifluoromethyl)phenyl]cyclopropyl}-3-methyl-N-[1-(1H-1,2,4-triazol-3-yl)ethyl]-1H-pyrrole-2-carboxamide], the CED90 is below 4 µM/day, the “DOR (day of recrudescence)” value is reported as 22 and the “blood level of compound required for efficacy” value was “lower”.
